Results reported in publication PMC3798018 (Nature chemical biology, 2009).

Sequences of proteins named here, by UniProt entry; tags and fusion partners are left off. A change or cut given only in a name is not applied to a line headed by its entry.
UniProt O14939: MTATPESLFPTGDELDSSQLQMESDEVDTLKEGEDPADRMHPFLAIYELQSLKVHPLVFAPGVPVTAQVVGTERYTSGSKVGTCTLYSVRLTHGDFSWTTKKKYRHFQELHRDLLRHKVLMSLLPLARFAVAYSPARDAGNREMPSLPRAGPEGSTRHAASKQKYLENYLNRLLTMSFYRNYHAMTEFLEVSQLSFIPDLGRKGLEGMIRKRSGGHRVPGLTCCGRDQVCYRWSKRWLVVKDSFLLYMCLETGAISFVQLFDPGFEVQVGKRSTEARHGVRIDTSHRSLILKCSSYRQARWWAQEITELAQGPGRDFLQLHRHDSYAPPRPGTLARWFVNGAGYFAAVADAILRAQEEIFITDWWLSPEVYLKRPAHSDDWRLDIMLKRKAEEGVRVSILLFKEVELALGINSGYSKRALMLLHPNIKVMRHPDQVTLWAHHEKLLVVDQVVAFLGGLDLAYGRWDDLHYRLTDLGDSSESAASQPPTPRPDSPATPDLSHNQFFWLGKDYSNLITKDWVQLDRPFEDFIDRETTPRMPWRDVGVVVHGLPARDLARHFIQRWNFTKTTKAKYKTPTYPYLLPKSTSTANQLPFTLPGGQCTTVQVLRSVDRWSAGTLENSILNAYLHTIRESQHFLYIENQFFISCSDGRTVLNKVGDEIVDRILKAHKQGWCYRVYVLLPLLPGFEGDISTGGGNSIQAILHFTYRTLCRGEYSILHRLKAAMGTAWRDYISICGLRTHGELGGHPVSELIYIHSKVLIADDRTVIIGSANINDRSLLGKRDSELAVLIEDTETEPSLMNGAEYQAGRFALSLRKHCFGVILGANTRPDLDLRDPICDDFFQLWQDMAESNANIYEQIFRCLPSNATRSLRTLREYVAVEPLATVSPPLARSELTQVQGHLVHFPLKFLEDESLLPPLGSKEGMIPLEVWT

Target: human PLD2 (Homo sapiens, UniProt O14939)
Assay: In vitro exogenous substrate PLD activity assay, myr-Arf-1-stimulated hPLD2
Format: biochemical
Details: in vitro enzyme assay

`O=C(NCCN1CCC2(CC1)C(=O)NCN2c1ccccc1)c1ccc2ccccc2c1` [Compound 72] was tested, and the “Preference for inhibition of PLD2 over PLD1, difference in in vitro IC50 values” was “approximately 40 fold”.
